Bioassay records (PubChem)
In the library only some 13% were active in any assay of this set; here they are far more common.
miR-21 reporter: raises the signal of a miR-21 reporter | HeLa miR-21 FLuc reporter, luciferase, 48 h | Potency, µM (highest dose often 38.3 µM), for inactives: at the highest dose reporter change, positive = more light | 340,000 tested, under 10 active | AID 2288; active = well fitted rising curve with a large enough effect; inconclusive = small, poorly fitted or top-dose-only effect; inactive = no such curve, though single readings can be large or run the other way;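 also: % of control where 0% means no effect; miR-21 action dims this reporter so a rising signal means less miR-21 action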
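HeLa cells endogenously expressing miR-21, stably carrying CMV-driven firefly luciferase with a downstream miR-21 binding site, 2000 cells/well. Titrations up to approximately 40 uM, 48 hours; luciferase luminescence read.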
LMNA splice mod: changes lamin A minigene splicing in HeLa cells. HeLa LMNA splicing GFP/RFP minigene ratio, 48 h. Potency, µM (titrated, usually from 46.1 µM), for the others: top-dose ratio change, negative = inhibition, usual class: inhibitors. hit rate 0.01% among 200,000; active means well fitted inhibition curve with a large enough effect in the signal ratio, with a control signal flat, not every such curve was filed as active; inconclusive means small, poorly fitted or top-dose-only effect, or effect the other way, or a change in a side signal; the % refers to the signal ratio; further: potency means the concentration at half of the fitted maximal effect; on the % scale 0 is the no-effect control and ±100 the full control effect
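Read-out is the ratio of GFP to DsRed2 object intensity, acquired by 488 nm laser-scanning cytometry on HeLa lamin A-EGFP minigene reporter cells. Compound incubation 48 hrs at 37 °C in Opti-MEM with 2% FBS; DMSO 0.5% final.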
JMJD2E inh: blocks human JMJD2E demethylase activity | Potency, µM (series often up to 57.1 µM), inactives show at the top dose activity change, negative = inhibition, usual class: inhibitors | JMJD2E catalytic domain, FDH-coupled NADH fluorescence (FDH is formaldehyde dehydrogenase) | hit rate 1.6% among 230,000; active means well fitted inhibition curve with a large enough effect, not every such curve was filed as active; inconclusive means small, poorly fitted or top-dose-only effect, or another doubt; inactive means no such curve, though single readings can be large or run the other way;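 further: potency means the concentration at half of the fitted maximal effect; 0% = wells with enzyme and -100% = buffer wells without enzyme; nearly all actives have a fitted effect of over 50% in size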
G9a block: G9a (human) methyltransferase inhibition | hit rate 8.8% among 350,000 | AID 504332 | G9a H3K9 monomethylation, AlphaScreen, 2 h | Potency, µM (titrated, usually from 102 µM), inactives show at the highest dose activity, negative = inhibition, actives largely listed as inhibitors; further: potency means the concentration at half of the fitted maximal effect; on the % scale 0 is the no-effect control and ±100 the full control effect; nearly all actives have a fitted effect of over 75% in size
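Step 1: enzyme (final 20 nM) with compound, 15 min RT. Step 2: substrate peptide 500 nM and SAM 20 uM, 2 h RT. Step 3: anti-H3K9me1 antibody and AlphaScreen beads, 10 min, then plate read.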
ALDH1A1 block: blocks purified human ALDH1A1 activity; Purified ALDH1A1, NADH fluorescence, propionaldehyde substrate; AID 1030; hit rate 7.3% among 220,000; Potency, µM (doses to about 75.3 µM), inactives show at the highest dose activity, negative = inhibition, hits mostly inhibitors; P00352; active means well fitted inhibition curve with a large enough effect, not every such curve was filed as active; inconclusive means small, poorly fitted or top-dose-only effect, or another doubt; inactive means no such curve, though single readings can be large or run the other way;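 further: potency means the concentration at half of the fitted maximal effect; plate controls were no enzyme wells and a reference inhibitor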
Sfp inh: Sfp phosphopantetheinyl transferase inhibition. 3.5% of 310,000 active. AID 1490. Potency, µM, inactives show max response, negative = inhibition, actives largely listed as inhibitors. Biochemical Sfp PPTase activity, qHTS; active = well fitted inhibition curve with a large enough effect; inconclusive = small, poorly fitted or top-dose-only effect, or another doubt; inactive = no such curve, though single readings can be large or run the other way;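 note: the enzyme is Sfp with the accession as filed and its product quenches rhodamine fluorescence; potency is the fitted concentration of half-maximal effect; 0% = enzyme reaction without inhibitor and -100% = no enzyme wells; top concentration of the series not given in the record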
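Step 1, compound plus 15 nM Sfp-PPTase, 15 min, room temperature. Step 2, add rhodamine-CoA (5 uM) and BHQ-2-YbbR (12.5 uM). Step 3, read 525/598 nm fluorescence at 0 and 30 min.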
Active calls of the source: *; ? = inconclusive; . = no result given; [ ] = remark or other dose. Unless noted, the call rests on the fitted dose curve; in most records, active means well fitted curve in the direction sought with a large enough effect; inconclusive means small, poorly fitted or top-dose-only effect, or another doubt; inactive means no such curve, though single readings can be large; an effect the other way counts as inactive or inconclusive.

nr	structure	miR-21 reporter	ALDH1A1 block	LMNA splice mod
1	O=C(CC1C(=O)NCCN1Cc1cccc(C(F)(F)F)c1)NC1CCCCCC1 (stereo unspecified)	-3%	.	.
2	O=C(CC1C(=O)NCCN1Cc1ccccc1C(F)(F)F)NC1CCCC1 (stereo unspecified)	-4%	.	.
3	O=C(CC1C(=O)NCCN1Cc1ccccc1F)NC1CCCCCC1 (stereo unspecified)	0%	.	.
4	O=C(CC1C(=O)NCCN1Cc1ccc(Cl)c(F)c1)NC1CCCCC1 (stereo unspecified)	-3%	.	.
5	Cc1ccc2oc(=O)n(CCCOc3ccccc3Cl)c2c1	-53%	.	.
6	Cc1ccc(-c2cc(C(F)(F)F)n3nc(C(=O)Nc4ccc(Cl)c(C(F)(F)F)c4)cc3n2)cc1	1%	.	.
7	COc1ccccc1NC(=O)CN1CCC(n2nnc3cc(F)ccc32)CC1	-12%	3%	-1%
8	O=C(CN1CCC(n2nnc3cc(F)ccc32)CC1)NCc1ccco1	-4%	14µM*	6%
9	O=C(CSc1nnc2[nH]c(=O)cc(-c3ccccc3)n12)Nc1ccc(OC(F)(F)F)cc1	-4%	.	23%[46 µM]
10	CC(C)CC(=O)Nc1cccc(NC(=O)c2ccccc2Cl)c1	-6%	-14%	3%

nr	Sfp inh	JMJD2E inh	G9a block
1	3%	.	40µM*
2	-9%	.	45µM*
3	2%	.	.
4	25%	.	57%
5	.	.	70%[59 µM]
6	.	.	5%[59 µM]
7	4%	-4%	3%[12.7 µM]
8	56µM*	?	?
9	.	.	?
10	8%	4%	3%[59 µM]

New compounds follow.
nr	structure	miR-21 reporter	ALDH1A1 block	LMNA splice mod
11	CC(C)CC(=O)NC(=S)Nc1cccc(NC(=O)c2ccccc2Cl)c1	0%	?	-22%
12	CCC(=O)NC(=S)Nc1cccc(NC(=O)c2ccccc2Cl)c1	-2%	?	-1%
13	CCCC(=O)NC(=S)Nc1cccc(NC(=O)c2ccccc2Cl)c1	-9%	?	-12%
14	CC(C)Oc1cccc(C(=O)NC(=S)Nc2cccc(NC(=O)c3ccccc3Cl)c2)c1	-8%	11µM*	?
15	O=S(=O)(NCc1ccccc1Cl)c1ccc(N2CCCCS2(=O)=O)cc1	-1%	.	-18%[46 µM]
16	C/C(CC(=O)Nc1cc(Cl)ccc1Cl)=N\NC(N)=S	-20%	13µM*	?
17	C/C(CC(=O)Nc1ccc(Cl)cc1C(F)(F)F)=N\NC(N)=S	1%	.	.
18	C/C(CC(=O)Nc1ccc(Cl)cc1Cl)=N\NC(N)=S	-3%	?	?
19	CCNc1c([N+](=O)[O-])c(=O)oc2ccccc12	0%	18µM*	20%[46 µM]
20	O=c1oc2ccccc2c(NC(c2ccccc2)c2ccccc2)c1[N+](=O)[O-]	-8%	22µM*	?

nr	Sfp inh	JMJD2E inh	G9a block
11	-9%	-7%	7.9µM*
12	-23%	3%	18µM*
13	-1%	3%	-14%[59 µM]
14	4%	-3%	6%[59 µM]
15	.	.	14%[59 µM]
16	35µM*	-4%	3%[12.7 µM]
17	45µM*	3%	12%
18	10%	-1%	17%[0.501 µM]
19	14%	-24%	9%
20	3%	5%	-22%

4 structures from above, sorted by SMILES length, lowest first.
nr	structure	miR-21 reporter	ALDH1A1 block	LMNA splice mod
16	C/C(CC(=O)Nc1cc(Cl)ccc1Cl)=N\NC(N)=S	-20%	13µM*	?
12	CCC(=O)NC(=S)Nc1cccc(NC(=O)c2ccccc2Cl)c1	-2%	?	-1%
13	CCCC(=O)NC(=S)Nc1cccc(NC(=O)c2ccccc2Cl)c1	-9%	?	-12%
17	C/C(CC(=O)Nc1ccc(Cl)cc1C(F)(F)F)=N\NC(N)=S	1%	.	.

nr	Sfp inh	JMJD2E inh	G9a block
16	35µM*	-4%	3%[12.7 µM]
12	-23%	3%	18µM*
13	-1%	3%	-14%[59 µM]
17	45µM*	3%	12%

Additional structures follow:
nr	structure	miR-21 reporter	ALDH1A1 block	LMNA splice mod
21	CC(Nc1c([N+](=O)[O-])c(=O)oc2ccccc12)C(Cl)c1ccccc1 (stereo unspecified)	4%	?	?
22	CCc1ccc(Nc2c([N+](=O)[O-])c(=O)oc3ccccc23)cc1	7%	.	.
23	Cc1ccc(Nc2c([N+](=O)[O-])c(=O)oc3ccccc23)cc1	24%	?	-2%[46 µM]
24	O=c1oc2ccccc2c(NCc2cccc(F)c2)c1[N+](=O)[O-]	-18%	25µM*	?
25	O=c1oc2ccccc2c(Nc2ccc3ccccc3c2)c1[N+](=O)[O-]	-1%	2.2µM*	?
26	COc1ccccc1CNC(=O)C(=O)NCC(c1cccs1)S(=O)(=O)c1ccc(F)cc1 (stereo unspecified)	22%	.	-15%[46 µM]
27	COCCCNC(=O)CCC(=O)N1Cc2cccc(OC)c2Oc2ncccc21	1%	.	16%[46 µM]
28	CC1CCCN(c2c([N+](=O)[O-])c(=O)oc3ccccc23)C1 (stereo unspecified)	1%	8%	-11%
29	CN(C)c1ccc(N/C(=N\S(=O)(=O)c2cccs2)c2ccccc2)cc1	-25%	?	-8%
30	CN(/C(=N/S(=O)(=O)c1cccs1)c1ccccc1)c1ccccc1	-3%	-2%	?

nr	Sfp inh	JMJD2E inh	G9a block
21	11%	-3%	-8%[59 µM]
22	11%	5%	-47%[59 µM]
23	3%	-16%	-1%
24	-2%	-2%	0%[59 µM]
25	-8%	-15%	.
26	.	.	5%[59 µM]
27	.	.	-30%[59 µM]
28	21%	5%	45µM*
29	-1%	-3%	4.5µM*
30	12%	-2%	-3%[59 µM]

(cont.)
nr	structure	miR-21 reporter	ALDH1A1 block	LMNA splice mod
31	COc1ccccc1OCc1nnc(SCCN2CCOCC2)o1	-8%	-10%	7%
32	CC1CCCN(CCCOc2ccccc2-c2ccccc2)C1 (stereo unspecified)	11%	?	-19%[46 µM]
33	CC1CCN(CCOCCOc2ccccc2Br)CC1	-6%	-8%	-17%[46 µM]
34	c1ccc2c(OCCCCN3CCOCC3)cccc2c1	-9%	.	.
35	C[C@@H]1CCCN(CP(=O)(c2ccccc2)c2ccccc2)C1	.	2%[13.5 µM]	.
36	COc1ccccc1OCCCCN1CCC(C)CC1	-1%	.	.
37	COc1ccccc1OCCCCCCN1CCOCC1	0%	-4%	.
38	COc1ccc(CCNC(=O)CCc2cc(OC)c(OC)c(OC)c2)cc1OC	-5%	.	.
39	COc1ccc(NS(=O)(=O)c2c(C)cc(C)cc2C)cn1	9%	.	.
40	CC1CCN(CCCCOc2ccc(Cl)cc2)CC1	-7%	.	.

nr	Sfp inh	JMJD2E inh	G9a block
31	?	?	6.3µM*
32	-19%	?	11µM*
33	-12%	?	?
34	-29%	.	.
35	.	.	.
36	-7%	.	25µM*
37	-28%	?	13µM*
38	6%	.	-8%
39	-23%	.	-37%
40	-13%	.	-7%

(further entries)
nr	structure	miR-21 reporter	ALDH1A1 block	LMNA splice mod
41	CC1CCN(CCCCOc2ccccc2-c2ccccc2)CC1	28%	?	-13%
42	OCCCN1CCN(CCCOc2ccccc2-c2ccccc2)CC1	-4%	-2%	8%
43	CC1CCN(CCCCOc2ccc(C(C)(C)C)cc2)CC1	-5%	.	.
44	CC(C)(C)NC(=O)c1ccccc1NC(=O)C1CC(=O)N(C2CCCCC2)C1 (stereo unspecified)	-1%	.	.
45	O=C(Nc1nc2c(s1)CCc1ccccc1-2)c1cccs1	-15%	-3%	?
46	Fc1ccccc1Nc1nc2c(s1)CCc1ccccc1-2	-71%	5%	?
47	CN(C(=O)c1ccc(Br)o1)C1CCS(=O)(=O)C1 (stereo unspecified)	1%	.	.
48	CCCSC1=C(C#N)C(c2cccs2)CC(=O)N1 (stereo unspecified)	-2%	.	.
49	C=C(C)CSC1=C(C#N)C(c2ccccc2Cl)CC(=O)N1 (stereo unspecified)	-11%	?	-9%
50	CCSC1=C(C#N)C(c2ccccc2C)CC(=O)N1 (stereo unspecified)	-3%	-6%	5%

nr	Sfp inh	JMJD2E inh	G9a block
41	?	3%	13µM*
42	12%	-2%	-4%[59 µM]
43	-26%	.	40µM*
44	17%	.	8%
45	-10%	-24%	?
46	3.2µM*	3%	6.3µM*
47	17%	.	?
48	25µM*	-5%	?
49	45µM*	-25%	45µM*
50	18%	1%	?
